The test deals with H3K79 methylation. The experiment in a line: Western blot of histone methylation in MDA-MB231. In kind it is cell-based, Human. As to conditions: in words. A general note: In western blotting, separated proteins are transferred to a membrane and probed.

As for `CC(C)N(CCCNC(=O)Nc1ccc(C(C)(C)C)cc1)CC1OC(n2cnc3c(N)ncnc32)C(O)C1O` (stereo not shown) [Compound 2, SYC-522], the “effect on H3K79 methylation” value was “only inhibited H3K79 methylation”.

The values are drawn from paper PMC4279401 (Oncotarget, 2014).
